Results taken from patent publication US20250026748A1, “N-(5-SUBSTITUTED-[(1,3,4-THIADIAZOLYL) OR (THIAZOLYL)])(SUBSTITUTED)CARBOXAMIDE COMPOUNDS AND USE THEREOF FOR INHIBITING HUMAN POLYMERASE THETA” (Repare Therapeutics Inc., priority 2021, published 2025).

By UniProt entry, the sequences of proteins in these tests, tags left out. Residues count along the entry.
UniProt O75417, 1-894 limits assumed: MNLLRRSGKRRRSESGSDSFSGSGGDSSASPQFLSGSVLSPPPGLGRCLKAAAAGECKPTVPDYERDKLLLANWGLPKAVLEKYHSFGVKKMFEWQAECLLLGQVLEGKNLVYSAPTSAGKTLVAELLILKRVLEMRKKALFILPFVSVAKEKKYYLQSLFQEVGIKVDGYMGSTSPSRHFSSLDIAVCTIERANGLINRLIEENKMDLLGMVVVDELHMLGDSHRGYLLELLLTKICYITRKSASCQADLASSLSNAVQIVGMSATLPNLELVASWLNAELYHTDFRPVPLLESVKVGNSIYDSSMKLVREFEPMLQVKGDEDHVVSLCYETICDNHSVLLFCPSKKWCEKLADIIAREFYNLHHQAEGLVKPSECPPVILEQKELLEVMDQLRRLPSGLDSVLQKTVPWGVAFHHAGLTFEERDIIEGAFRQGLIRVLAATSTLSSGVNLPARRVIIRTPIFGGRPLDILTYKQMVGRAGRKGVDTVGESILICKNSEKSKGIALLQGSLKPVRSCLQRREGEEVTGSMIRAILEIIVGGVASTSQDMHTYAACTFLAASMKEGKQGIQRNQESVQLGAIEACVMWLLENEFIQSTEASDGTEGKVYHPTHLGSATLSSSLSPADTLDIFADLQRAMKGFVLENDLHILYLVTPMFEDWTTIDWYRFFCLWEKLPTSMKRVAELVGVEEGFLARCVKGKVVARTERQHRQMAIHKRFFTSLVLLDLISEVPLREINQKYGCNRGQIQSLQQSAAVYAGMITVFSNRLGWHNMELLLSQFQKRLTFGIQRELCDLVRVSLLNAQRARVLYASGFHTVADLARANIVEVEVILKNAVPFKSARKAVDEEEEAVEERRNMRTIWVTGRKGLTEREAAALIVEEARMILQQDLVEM

Target: PolQ ATPase enzyme (1-894) (Homo sapiens (Human), UniProt O75417)
Assay: Polθ ATPase enzymatic assay (0.5 nM enzyme concentration), ADP-Glo
Conditions: read-out: IC50 (nM) [PolQ] 0.5 nM; average IC50; 0.5 nM PolQ ATPase enzyme (1-894)

Structure (SMILES): COc1cnc(C(F)F)cc1-c1cc(-c2ccn(C)n2)ncc1C(=O)Nc1nnc([C@@H]2C[C@H]2c2ccc(Cl)cc2)s1 (relative stereo)
- IC50: 0.55 nM
